Source: US20090280196A1, “CISSUS QUADRANGULARIS PLANT EXTRACTS FOR TREATING OSTEOPOROSIS AND THE EXTRACTION PROCESS THEREOF” (priority 2006, published 2009)

Tested on: MC3T3 cells
Assay: Bone formation experiment, ALP activity
Format: cell-based, murine
Settings: BMP-2 30 ng/ml, positive control
Source text: One of the most frequently assayed biochemical markers is alkaline phosphatase, which is simple to measure biochemically. (Sodek & Berkman, 1987). Its expression pattern in osteoblasts (Doty & Schofield, 1976; Stein et al. 1996) and its involvement in mineralisation have been extensively documented (Wuthier & Register, 1984). However, many cell types in bone or marrow stroma contain alkaline phosphatase, such as hypertrophic chondrocytes (Wuthier & Register, 1984) and adipocytes (Beresford et al. 1993), while fibroblastic cells also have a low concentration of this enzyme. The alkaline phosphatase activity can provide a good indicator of osteoblast cells if the cartilage and marrow are removed by dissection. The present invention evaluates the bone formation that has occurred through Alkaline phosphatase assay and the proliferation that has occurred through Alamar blue assay.
MC3T3 cell lines were used for the bone formation studies. These cells are murine osteogenic mesenchymal precursor cells, which can be differentiated into osteoclasts by ascorbic acid and beta-glycerol phosphate.
The osteoblasts (MC3T3 cells) were seeded at a density of 75000 cells per well in 24 plates. The cells were culture for one day before the plant extracts were added. […]

B1: BMP-2: bone morphogenic protein -2, positive control, induces the differentiation of the osteoblasts (protein, UniProt P12643 283-396, looked up)
Bone morphogenetic protein 2: QAKHKQRKRLKSSCKRHPLYVDFSDVGWNDWIVAPPGYHAFYCHGECPFPLADHLNSTNHAIVQTLVNSVNSKIPKACCVPTELSAISMLYLDENEKVVLKNYQDMVVEGCGCR
ALP activity compared to the negative control: induced
